Experimental data from patent US20090048260A1, “Use of pyrrolopyrazine derivatives for the production of medicaments for the treatment of mucoviscidosis and diseases related to protein addressing errors in cells” (priority 2004, published 2009).

Amino acid sequences for entries named in this document (tags omitted).
UniProt P13569, whole entry: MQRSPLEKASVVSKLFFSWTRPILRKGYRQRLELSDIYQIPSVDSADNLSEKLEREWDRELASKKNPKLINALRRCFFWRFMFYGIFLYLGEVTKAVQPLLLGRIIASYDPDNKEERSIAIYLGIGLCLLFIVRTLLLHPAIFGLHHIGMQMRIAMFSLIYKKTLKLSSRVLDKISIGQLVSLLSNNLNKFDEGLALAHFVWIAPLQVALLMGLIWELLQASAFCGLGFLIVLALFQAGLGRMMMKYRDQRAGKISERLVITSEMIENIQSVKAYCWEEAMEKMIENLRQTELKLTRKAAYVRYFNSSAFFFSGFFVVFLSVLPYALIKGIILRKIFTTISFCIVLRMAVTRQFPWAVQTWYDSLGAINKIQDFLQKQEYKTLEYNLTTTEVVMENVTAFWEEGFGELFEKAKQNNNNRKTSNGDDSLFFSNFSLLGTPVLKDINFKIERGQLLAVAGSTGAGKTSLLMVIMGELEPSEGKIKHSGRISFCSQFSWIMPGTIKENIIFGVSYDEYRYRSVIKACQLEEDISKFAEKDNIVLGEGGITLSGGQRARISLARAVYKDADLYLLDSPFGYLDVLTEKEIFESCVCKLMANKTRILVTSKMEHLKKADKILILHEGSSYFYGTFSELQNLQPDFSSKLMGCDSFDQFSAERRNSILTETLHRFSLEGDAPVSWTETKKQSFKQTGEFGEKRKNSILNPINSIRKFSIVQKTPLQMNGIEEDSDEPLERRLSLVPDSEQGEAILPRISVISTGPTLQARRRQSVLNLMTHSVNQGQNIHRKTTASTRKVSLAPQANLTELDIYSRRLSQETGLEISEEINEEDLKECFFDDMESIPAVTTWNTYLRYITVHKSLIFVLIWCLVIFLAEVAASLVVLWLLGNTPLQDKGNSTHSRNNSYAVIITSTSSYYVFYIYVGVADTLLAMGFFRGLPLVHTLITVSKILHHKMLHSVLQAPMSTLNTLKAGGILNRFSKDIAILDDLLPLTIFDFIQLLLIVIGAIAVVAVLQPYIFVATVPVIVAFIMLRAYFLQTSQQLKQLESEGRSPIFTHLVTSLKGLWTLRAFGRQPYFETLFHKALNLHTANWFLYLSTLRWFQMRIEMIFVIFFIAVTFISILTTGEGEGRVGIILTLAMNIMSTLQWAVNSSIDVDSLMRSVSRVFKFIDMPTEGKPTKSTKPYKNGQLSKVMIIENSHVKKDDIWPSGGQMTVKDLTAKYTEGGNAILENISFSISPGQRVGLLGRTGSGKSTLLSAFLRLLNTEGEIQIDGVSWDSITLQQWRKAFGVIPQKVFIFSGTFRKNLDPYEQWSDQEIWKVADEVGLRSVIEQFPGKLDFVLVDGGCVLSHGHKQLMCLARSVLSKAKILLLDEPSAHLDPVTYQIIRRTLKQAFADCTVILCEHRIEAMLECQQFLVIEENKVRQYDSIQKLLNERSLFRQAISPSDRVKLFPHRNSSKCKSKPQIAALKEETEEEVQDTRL

Biological target: T1, wild-type CFTR (Homo sapiens, UniProt P13569)
T1 construct: endogenous in cells; host or cells: Calu-3
Test: iodide efflux, activation of the CFTR chloride channel in Calu-3 cells
Assay type: cell-based
Conditions: human pulmonary epithelial cell line Calu-3
Protocol: Calu-3 cells: Calu-3 cells are human epithelial cells of pulmonary origin which express the wild-type CFTR gene.
the measurements of chloride ion transport in the cells was carried out with the aid of the radioactive iodide efflux technique (Becq et al., 1999; Dormer et al., 2001). The tracer (^125I) is incorporated into the intracellular medium. Next, the quantity of radiotracer which leaves the cell is counted after the addition of various pharmacological agents. Iodide is used as a tracer for the transport of chloride ions. ^125I further has the advantage of having a short life compared with that of other markers such as ^35Cl (respective ½ life: […] and 300000 years).
The cells are cultured on 24-well plates in a suitable medium. 2 rinses with efflux medium (NaCl: 136.6 mM, KCl: 5.4 mM, KH2PO4: 0.3 mM, NaH2PO4: 0.3 mM, NaHCO3: 4.2 mM, CaCl2: 1.3 mM, MgCl2: 0.5 mm, MgSO4: 0.4 mM, HEPES: 10 mM, D-glucose: 5.6 mM) are carried out in order to remove the dead cells which release the radioactivity anarchically. […] A robot (MultiPROBE, Packard) carries out the following steps: the loading medium is rinsed with efflux medium in order to remove the extracellular radioactivity. […] At the end of the experiment, the cells are lyzed by adding 500 μl of NaOH (0.1 N)/0.1% SDS (30 min), thus, the radioactivity which remained inside the cell may be determined. […]

EC50: 140 nM
Structure (SMILES): CCCCc1c(-c2ccc(O)cc2)[nH]c2nccnc12 [aloisine A]
